The whole screen tested about 340,000 compounds, of which about 530 (0.16%) were called active. All entries are inconclusive by the source's own rule. Clear calls are listed elsewhere. Rule as the data show it: active = activity change below about -80%; inconclusive = between about -30% and that limit; inactive = weaker than that.
Assay: Small Molecules that selectively kill Giardia lamblia: qHTS;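 also: parasites exposed to compound for two days anaerobically before the ATP read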
Conditions: Giardia lamblia trophozoite viability; at 7.66 µM; active compounds read low
From the text: Giardia lamblia is a human pathogen afflicting impoverished nations, and the most common cause of outbreaks of diarrhea in the United States. Giardia has been classified by the CDC as a category B bioterrorism organism. The favored anti giardiasis drugs in the US are metronidazole or tinidazole, compounds that have undesirable side effects. Moreover, increasing resistance to drug regimes and recurrence are a concern. It is thus clear that alternative drug treatments are needed.
In a collaboration between the University of Maryland, College Park and the NIH Chemical Genomics Center, a bioluminescence Giardia viability assay based on the trophozoites' ATP content was developed. This assay is suitable for high throughput screening, and miniaturized the assay for compound screening in 1536-well plates. The goal of the project is to screen the Molecular Libraries Small Molecule Repository (MLSMR) for compounds that selectively kill Giardia trophozoites.
NIH Chemical Genomics Center [NCGC]
NIH Molecular Libraries Probe Centers Network [MLPCN]
Assay Submitter (PI): Osnat Herzberg, University of Maryland, College Park, MD.
1. Dispense 2 ul/well media
2. Dispense 23 nl/well compounds
3. Dispense 4 ul/well Giardia trophozoites at a concentration of 100 cells/well
4. Incubate 48 hrs at 37 deg C anaerobically
5. Dispense 4 ul/well ATPLite 1-Step Luminescence assay kit
6. Incubate 15-30 min at room temperature
7. Read luminescence signal on ViewLux plate reader
% is scaled to controls: 0 for no effect and ±100 for the full control effect.

Row | SMILES | activity change
1 | NC(=O)c1cc([N+](=O)[O-])cc([N+](=O)[O-])c1N | inconclusive: -46.3%
2 | Nc1cccc2ccc([As](=O)(O)O)cc12 | inconclusive: -36.4%
3 | O=C(O)c1ccccc1[As](=O)(O)O | inconclusive: -79.2%
4 | O=[N+]([O-])c1cccc2n[nH]nc12 | inconclusive: -44.8%
5 | O=[As](O)(c1ccccc1)c1ccc(O)cc1 | inconclusive: -34.7%
6 | Nc1ccc([As](=O)(O)c2ccc([N+](=O)[O-])cc2)cc1 | inconclusive: -48%
7 | O=c1c2cc([N+](=O)[O-])ccc2[nH]c2c([N+](=O)[O-])cc([N+](=O)[O-])cc12 | inconclusive: -61.6%
8 | Cc1ccc(NCCc2c([N+](=O)[O-])cc([N+](=O)[O-])cc2[N+](=O)[O-])cc1 | inconclusive: -37.7%
9 | O=P(Nc1nccs1)(Oc1ccccc1)Oc1ccccc1 | inconclusive: -32.6%
10 | O=[As](O)(c1cccs1)c1cccs1 | inconclusive: -73.7%
11 | Nc1cccc([As](=O)(O)c2ccccc2)c1 | inconclusive: -48.7%
12 | Cc1cc(SC(NC=O)C(Cl)(Cl)Cl)ncn1 (configuration not stated) | inconclusive: -41.1%

From PubChem BioAssay AID540267 (National Center for Advancing Translational Sciences (NCATS), 2011)
